Experimental data: US8183371B2, “Pyrazines as delta opioid receptor modulators” (Janssen Pharmaceutica NV, priority 2009, dated 2012)

Chains of the proteins cited; added tags and fusions are not shown.
UniProt P33533, whole entry: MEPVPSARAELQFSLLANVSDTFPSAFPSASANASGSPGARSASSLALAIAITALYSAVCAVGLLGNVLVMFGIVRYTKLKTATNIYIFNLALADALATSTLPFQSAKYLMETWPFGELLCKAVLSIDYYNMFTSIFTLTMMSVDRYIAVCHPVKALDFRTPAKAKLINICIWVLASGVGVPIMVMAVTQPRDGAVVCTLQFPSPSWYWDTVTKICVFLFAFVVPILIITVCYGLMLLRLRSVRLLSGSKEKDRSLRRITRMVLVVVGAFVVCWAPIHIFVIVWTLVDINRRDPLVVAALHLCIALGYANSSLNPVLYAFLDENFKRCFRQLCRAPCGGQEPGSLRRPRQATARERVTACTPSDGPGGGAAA

Legend:
[1] = target: delta opioid receptor (Rattus norvegicus, UniProt P33533); test: Rat brain delta opioid receptor binding assay; conditions: read-out: δ-binding (Naltrindole ligand) Ki; [3H]naltrindole ligand
Description: Procedure: Male, Wistar rats (150-250 g, VAF, Charles River, Kingston, N.Y.) were killed by CO2, and their brains were removed and placed immediately in ice cold Tris HCl buffer (50 mM, pH 7.4). The forebrains were separated from the remainder of the brain by a coronal transection, beginning dorsally at the colliculi and passing ventrally through the midbrain-pontine junction. After dissection, the forebrains were homogenized in Tris buffer in a Teflon®-glass homogenizer. The homogenate was diluted to a concentration of 1 g of forebrain tissue per 80 mL Tris and centrifuged at 39,000×g for 10 min. The pellet was resuspended in the same volume of Tris buffer containing 5 mM MgCl2 with several brief pulses from a Polytron homogenizer. […] To each sample area 2×50 μL of Betaplate Scint scintillation fluid (LKB) was added and the radioactivity was quantified on a LKB (Wallac) 1205 BetaPlate liquid scintillation counter.
Analysis: The data from the scintillation counter were used to calculate either the % inhibition compared to control binding (when only a single concentration of test compound was evaluated) or a Ki value (when a range of concentrations was tested). Percent inhibition was calculated as: [(total dpm−test compound dpm)/(total dpm−nonspecific dpm)]*100. Kd and Ki values were calculated using GraphPad PRISM data analysis program.

[2] = target: δ-opioid receptor (Mus musculus, UniProt P32300); test: [35S]GTPγS binding assay in NG108-15 cell membranes (delta opioid functional assay); assay type: biochemical

Q: For `c1ncc(-c2cnc(NC[C@@H]3CCCN3)c(Oc3ccc4occc4c3)n2)cn1`, which Ki [1] is on record?
A: Its Ki is 1.3 nM.

Q: What about the “GTPγS δ-RelEfficacy @200 nM” value ([2]; 200 nM compound, relative to calculated max of SNC80 dose response) of the same molecule?
A: The value was 0.5502.

Q: What about the EC50 ([2]; read-out: GTPγS δ-opioid receptor EC50) of the same molecule?
A: Its EC50 is 79.3 nM.
